From article PMC3412146

Target: RIG-I(N) (no GST tag) (human)
Assay: AUC

Substance	stoichiometry N (RIG-I(N) per Ub chain (printed as 4:4))	stoichiometry N (RIG-I(N) per Ub3)
K63-Ub4 (from UniProt P0CG48 1-76)	1	
K63-Ub5 (from UniProt P0CG48 1-76)	1	
K63-Ub3 (from UniProt P0CG48 1-76)		1
